According to patent US11246865B2 (priority 2017, dated 2022):

Experiments:
[1] = Respiratory depression (increased PaCO2) in rats
[2] = Rat tail-pinch model, antinociceptive activity; assay type: in vivo; conditions: rats

With “(+)-3-((alpha-R)-alpha-((2S,5R)-4-allyl-2,5-dimethyl-1-piperazinyl)-3-hydroxybenzyl)-N-(3-fluorophenyl)-N-methylbenzamide” the “Respiratory Depression ED50” value ([1]; rats, increased PaCO2) was 0.91 mg/kg, the “Therapeutic Ratio” value ([1]; respiratory depression ED50 versus analgesic ED50) was 18.2 and the “Analgesic ED50 Tail Pinch” value [2] was 0.050 mg/kg.
